Data taken from publication PMC2409616 (British Journal of Cancer, 2004).

Tests used:
WiDr = assay: Cytotoxicity IC50 assay, 4 h drug exposure, sulphorhodamine B; conditions: read-out: IC50 following 4 h drug exposure, mean±s.e.m.
V79^puro = assay: as above; conditions: read-out: IC50 following 4 h drug exposure, mean±s.e.m.
UV4 = assay: as above
SiHa = assay: as above; conditions: read-out: IC50 following 4 h drug exposure, mean±s.e.m.
AA8 = assay: as above; conditions: read-out: IC50 following 4 h drug exposure, mean±s.e.m.
UV4 cells = assay: Bioassay of HPLC fractions of extracellular medium against UV4 cells; conditions: extracellular medium of V79-NTR^puro suspensions with SN 23862
SiHa-NTR^puro MCLs = conditions: parent prodrug 100 μM in donor compartment

With NC(=O)c1cc(N(CCCl)CCCl)c([N+](=O)[O-])cc1N the IC50 (WiDr) was 2.75 µM, the IC50 (V79^puro) was 3.94 µM and the “AA8/UV4 intra-experiment IC50 ratio” value (UV4; 4 h drug exposure) was 40±4. It also gave an IC50 (UV4; read-out: IC50 following 4 h drug exposure, UV4 (repair defective), mean±s.e.m.) of 0.23 µM, an IC50 (SiHa) of 2.5 µM and an IC50 (AA8) of 8.8 µM. For the same compound, the “Bioactivity of HPLC fraction against UV4 cells” value (UV4 cells) was “only cytotoxic metabolite detected” and the “Initial flux of metabolite” value (SiHa-NTR^puro MCLs) was 0.5 µM/h.
